US7262192B2, “Substituted pyrazolo[4,3-d]pyrimidines and their use as PDE-5 inhibitors” (Pfizer Inc., priority 2003, dated 2007)

Molecular target: cGMP-specific PDE-5 (UniProt O76074)
Assay: PDE-5 inhibition, batch method or scintillation proximity assay
Format: biochemical, human
Settings: activity against PDE-5, representative preferred compounds

IC50	SMILES	IC50 (tested form: HCl)
0.2 nM	Cc1nn(CCOCC(F)(F)F)c2c(Nc3ccncn3)nc(N3CCN[C@H](C)C3)nc12	–
–	Cc1cc(Nc2nc(N(C)C3CCN(C)CC3)nc3c(C)nn(CCOCC(F)(F)F)c23)ncn1	0.47 nM
